According to PubChem BioAssay AID1992 (Sanford-Burnham Center for Chemical Genomics, 2009):
This is a selection; strong and weak results do not stand in their true shares. Calls of active or inactive are those of the source. Cut-off read from the data, not from the text of the source: active = inhibition above about 60%; inactive = the rest.

The chains behind the UniProt entries cited, without tags or fusion partners. Where a name states a change or a piece, a line headed by the entry shows the natural chain unless it says otherwise.
UniProt P51452: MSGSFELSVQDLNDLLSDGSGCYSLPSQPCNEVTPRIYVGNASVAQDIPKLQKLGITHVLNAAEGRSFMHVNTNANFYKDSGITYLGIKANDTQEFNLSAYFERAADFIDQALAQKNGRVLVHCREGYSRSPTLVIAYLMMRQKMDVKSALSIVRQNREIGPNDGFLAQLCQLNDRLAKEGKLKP

The compounds below were run against Dual specificity protein phosphatase 3 (Homo sapiens) (UniProt P51452) (assay: human DUSP3 activity blockers – biochemical, colorimetric, HTS, primary screen (AID 1992)). Details: recombinant VHR phosphatase, colorimetric substrate read-out; at 20 µM; active compounds read high.

Compound | inhibition
CCCCOP(=O)(OCCCC)SC | inactive: 1.3%
COC(=O)NC(Sc1ccc(Cl)cc1)C(Cl)Cl (stereo not given) | inactive: -13.5%
CCOC(=O)NC(Sc1nc2ccccc2o1)C(Cl)(Cl)Cl (stereo not given) | inactive: 28.7%
O=CNC(Sc1nc2ccccc2o1)C(Cl)(Cl)Cl (stereo not given) | inactive: 4.2%
CCCCSP(=O)(OCC(C)C)OCC(C)C | inactive: -8.3%
Cc1ccc(SC(NC(=O)c2ccccc2)C(Cl)Cl)cc1 (stereo not given) | inactive: -19.1%
Cc1cc(C)nc(SC(NC(=O)c2ccccc2)C(Cl)(Cl)Cl)n1 (stereo not given) | inactive: 13.1%
O=C(NC(SC1=NCCS1)C(Cl)(Cl)Cl)c1ccc(I)cc1 (stereo not given) | inactive: 11.9%
O=C(CF)NC(Sc1ccc(Cl)cc1)C(Cl)(Cl)Cl (stereo not given) | inactive: -4.7%
COC(=O)c1ccc(OP(=O)(Oc2ccc(Cl)cc2C)SCC(C)C)cc1 (stereo not given) | inactive: 1.7%
